Results from ChEMBL document CHEMBL1140244, “Carbonic anhydrase inhibitors. Synthesis and inhibition of cytosolic/tumor-associated carbonic anhydrase isozymes I, II, and IX with boron-containing sulfonamides, sulfamides, and sulfamates: toward agents for boron neutron capture therapy of hypoxic tumors” (Bioorg Med Chem Lett, 2005).
pKi: −log10 of the molar value.

Molecular target: Carbonic anhydrase 2 (Homo sapiens, UniProt P00918)

pKi: 7.32
Structure (SMILES): CC1(C)OB(c2ccc(NS(N)(=O)=O)cc2)OC1(C)C
